Laboratory results: PubChem BioAssay AID624263 (National Center for Advancing Translational Sciences (NCATS), 2012)
Only a part is listed here, and it is no random draw. Active and inactive are the calls of the source. Calls follow the shape of the dose curve; as a rule, active = well fitted activation curve with a large enough effect; inconclusive = small, poorly fitted or top-dose-only effect; inactive = flat fitted curve, though single readings scatter; cell line not stated here.

Experiment: A Quantitative High throughput Screen to Identify Chemical Modulators of PINK1 Expression; also: % of control where 0% means no effect; nearly all actives have a fitted effect of over 65% in size
Settings: PINK1 immunofluorescence, high-content cytometry, 24 h; at 76.6 µM (top of the series)

SMILES | activation (PINK1 increase)
CCC(=O)N(c1ccccc1)C1(COC)CCN(CCn2nnn(CC)c2=O)CC1 | inactive: -1.07%
CCC(=O)N(c1ccccc1)C1(COC)CCN(CCc2cccs2)CC1 | inactive: 0.695%
